Experimental data as given in US20200164083A1.

What was measured:
[1] = target: capture reagent (antibody) of the exenatide ELISA kit (Peninsula Laboratories Inc., # S-1311); test: ELISA (Peninsula Lab exenatide kit)
GLP-1 receptor = GLP-1 receptor (UniProt P43220); test: cell-based or functional assay

Substance	EC50 [1]	EC50, cAMP assay (GLP1R cAMP Hunter bioassay) (GLP-1 receptor)	EC50, pM in GLP1R cAMP Hunter assay (GLP-1 receptor)	EC50 in a GLP-1RA assay (GLP-1 receptor)
[N28D]exenatide (synthetic) (peptide)	> 100 nM	0.041 nM	–	–
[N28K]exenatide (peptide)	> 100 nM	–	–	–
exenatide (peptide)	–	0.029 nM	130 pM	0.017 nM
[N28A]exenatide (peptide)	6 nM	–	–	–
